Assays:
[1] = ORCA-1: treatment emergent adverse events
Description: This was a six-arm, multi-center, double-blind, randomized, placebo-controlled study conducted in male or female adults≥18 years of age, smoking 10+ cigarettes daily, and willing to set a quit date that is 5-7 days after randomization. This study was designed to evaluate the effectiveness of 1.5 mg of cytisine versus placebo using the commercial titration schedule approved in Central and Eastern Europe. The study also evaluated the effectiveness of a simplified TID dosing schedule for 1.5 mg and an increased dose of 3.0 mg (using both the commercial titration (COM) and simplified TID dosing schedules). The overall goal of the study was to obtain estimates of effect size for efficacy and safety endpoints that will be used to inform the design of future Phase 3 studies.
TEAEs were experienced by approximately half the study population in all treatment arms. The TID dosing schedule had slightly fewer TEAEs overall. Across both schedules, the SOCs with the highest incidence of TEAEs in any treatment arm were infections and infestations, psychiatric disorders, and gastrointestinal disorders. Common TEAEs were AEs that had been previously reported in other studies or within the Investigator's Brochure. All TEAEs were mild or moderate in severity on the commercial schedule and all events except 2 were mild or moderate on the TID schedule: One experienced a severe head injury, and another subject experienced a severe case of influenza. Neither event was considered related to the study drug.

[2] = test system: neuronal alpha4, beta2 (α4β2) receptors; details: cited from earlier work
[3] = 1.5 mg downward titration (n = 51)
[4] = 3.0 mg downward titration (n = 50)

## O=c1cccc2n1C[C@@H]1CNC[C@H]2C1
[1]; 1.5 mg TID (n = 52)
  Abnormal dreams: 4 (8%) n (%)
  At least 1 AE: 20 (39%) n (%)
  Constipation: 1 (2%) n (%)
  Fatigue: 3 (6%) n (%)
  Headache: 6 (12%) n (%)
  Insomnia: 4 (8%) n (%)
  Nausea: 1 (2%) n (%)
  URTI: 5 (10%) n (%)
[1]; [3]
  Abnormal dreams: 4 (8%) n (%)
  At least 1 AE: 29 (57%) n (%)
  Fatigue: 1 (2%) n (%)
  Headache: 1 (2%) n (%)
  Insomnia: 3 (6%) n (%)
  Nausea: 5 (10%) n (%)
  URTI: 3 (6%) n (%)
[1]; 1.5 mg or 3.0 mg, both schedules
  overall safety: no safety concerns
[1]; 3.0 mg TID (n = 50)
  Abnormal dreams: 3 (6%) n (%)
  At least 1 AE: 21 (42%) n (%)
  Constipation: 3 (6%) n (%)
  Fatigue: 1 (2%) n (%)
  Headache: 2 (4%) n (%)
  Insomnia: 3 (6%) n (%)
  Nausea: 3 (6%) n (%)
  URTI: 3 (6%) n (%)
[1]; [4]
  Abnormal dreams: 7 (14%) n (%)
  At least 1 AE: 23 (46%) n (%)
  Fatigue: 2 (4%) n (%)
  Headache: 1 (2%) n (%)
  Insomnia: 4 (8%) n (%)
  Nausea: 3 (6%) n (%)
  URTI: 2 (4%) n (%)
[1]; pooled cytisinicline (n = 203)
  Abnormal dreams: 18 (9%) n (%)
  At least 1 AE: 93 (46%) n (%)
  Constipation: 4 (2%) n (%)
  Fatigue: 7 (3%) n (%)
  Headache: 10 (5%) n (%)
  Insomnia: 14 (7%) n (%)
  Nausea: 12 (6%) n (%)
  URTI: 13 (6%) n (%)
[2]
  binding to neuronal α4β2 receptors: bind strongly and preferentially

Source: patent US20260382581A1, “COMPOSITIONS COMPRISING CYTISINE IN THE TREATMENT AND/OR PREVENTION OF ADDICTION IN SUBJECTS IN NEED THEREOF” (published 2026)
